Target: T1, δOR on HCT-116/δOR cell line (Homo sapiens, UniProt P41143)
T1 construct: pcDNA-δOR15 vector containing a truncated δOR lacking the final 15 C-terminal amino acids; expressed in transfected cells
Assay: In cyto time-resolved fluorescence (TRF) saturation binding assay
Description: For the competitive binding assays, HCT-116/δOR cells were plated in black wall/white bottom 96-well plates (Perkin Elmer, Cat. #6005060) at a density of 20,000 cells per well and were allowed to grow for 3 days.

By UniProt entry, the sequences of proteins in these tests, tags left out. Where a name states a change or a piece, a line headed by the entry shows the natural chain unless it says otherwise. Residues count along the entry.
UniProt P41143, 1-357 limits assumed: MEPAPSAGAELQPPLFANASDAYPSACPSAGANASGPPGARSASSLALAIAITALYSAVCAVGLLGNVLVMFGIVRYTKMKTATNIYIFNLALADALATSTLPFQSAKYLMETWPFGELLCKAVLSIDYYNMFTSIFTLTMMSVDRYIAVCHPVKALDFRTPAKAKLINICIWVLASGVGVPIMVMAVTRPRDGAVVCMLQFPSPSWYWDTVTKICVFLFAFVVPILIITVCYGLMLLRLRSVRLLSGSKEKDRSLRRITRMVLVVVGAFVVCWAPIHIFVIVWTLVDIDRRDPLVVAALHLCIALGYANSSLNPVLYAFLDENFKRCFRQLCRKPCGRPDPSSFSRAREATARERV

Europium (Eu)-diethylenetriaminepentaacetic acid (DTPA)[D-Pen^2, L-Cys^5] enkephalin (DPLCE) [Eu-DTPA labeled DPLCE]
Kd: 51.8 nM
